Target: Flag-CLIC4-Y104A (dog)
Test: co-IP; lysates of co-transfected 293T cells in RIPA buffer plus 0.5% CHAPS; anti-Flag or control antibody; Protein-G Dynabeads; 4 °C overnight; 4 washes; blots quantified with the Odyssey system, three independent repeats

MMP14-mCherry (from UniProt P50281 112-582) (natural protein)
percent reduction of co-precipitation against Flag-CLIC4 wild type: 56 % less

Reference: PMC6706427
